# OPERA 2.9 data: melting point values

Data: OPERA 2.9 data sets, kmansouri/OPERA on GitHub.

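OPERA's authors assembled the values from existing databases and did not measure them anew. The files give a single number for a compound and property, which may rest on several reports. Conditions of the individual experiments are not part of the data. Where a salt, mixture or single isomer is drawn, the source does not say that exactly this form was tested. Some upstream entries may be estimates or bounds without being marked so.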

Melting points are in °C. "n/a" marks a cell with nothing listed here. The databases behind each value are named after "via".

- COc1ccccc1OCCC(=O)O [3-(2-methoxyphenoxy)propanoic acid]: MP 134 °C (via OCHEM)
- CCNc1ccc(C(=O)OCC)cc1[N+](=O)[O-] [4-Ethylamino-3-nitro-benzoic acid ethyl ester]: MP 93 °C (via OCHEM)
- NCc1nnc2ccccn12 [1-([1,2,4]Triazolo[4,3-a]pyridin-3-yl)methanamine]: MP 132 °C (via OCHEM)
- O=[N+]([O-])c1ccc(Cl)cc1I [4-chloro-2-iodo-1-nitrobenzene]: MP 63 °C (via OCHEM)
- Nn1cnc2ccccc21 [1H-benzimidazol-1-amine]: MP 148 °C (via OCHEM)
- O=Cc1csc(-c2ccc(F)cc2)n1 [2-(4-Fluorophenyl)-1,3-thiazole-4-carbaldehyde]: MP 100 °C (via OCHEM)
- O=C(O)c1cccc2c1CCCN2 [1,2,3,4-Tetrahydroquinoline-5-carboxylic acid]: MP 143 °C (via OCHEM)
- Cc1c(Cl)cc(S(=O)(=O)Cl)cc1[N+](=O)[O-] [3-Chloro-4-methyl-5-nitrobenzene-1-sulfonyl chloride]: MP 61 °C (via OCHEM)
- O=C(O)c1cc(F)c(F)cc1C(=O)O [4,5-difluorophthalic acid]: MP 159 °C (via OCHEM)
- Cc1ccccc1-c1n[nH]c(=S)n1N: MP 200 °C (via OCHEM)
- CCOC(=O)c1cnoc1N [Ethyl 5-amino-1,2-oxazole-4-carboxylate]: MP 17 °C (via OCHEM)
- Cc1ccc(C(C)C)c(OCC(=O)O)c1 [2-(2-isopropyl-5-methylphenoxy)acetic acid]: MP 127 °C (via OCHEM)
- NNC(=O)CNc1ccc(F)cc1 [2-[(4-fluorophenyl)amino]acetohydrazide]: MP 81.5 °C (via OCHEM)
- Cc1ccc(Nc2nc(N)nc(CCl)n2)cc1: MP 159 °C (via OCHEM)
- CCOC(=O)Nc1ccc2nn(C3CCCC3)nc2c1 [Ethyl (2-cyclopentyl-2H-benzotriazol-5-yl)carbamate]: MP 122 °C (via OCHEM)
- O=C(O)c1ccccc1Nc1ccc(SC(F)F)cc1 [Anthranilic acid, N-(p-((difluoromethyl)thio)phenyl)-]: MP 117 °C (via OCHEM)
- Nc1ccc(-c2nc3ccccc3[nH]2)cc1 [4-(1H-Benzoimidazol-2-yl)-phenylamine]: MP 220 °C (via OCHEM)
- O=C(O)c1ccc(-n2cc(Br)cn2)cc1 [4-(4-bromo-1H-pyrazol-1-yl)benzoic acid]: MP 274 °C (via OCHEM)
- COc1ccc2oc(C)c(C(=O)O)c2c1 [5-Methoxy-2-methyl-benzofuran-3-carboxylic acid]: MP 210 °C (via OCHEM)
- SCCCCCCCCCS [1,9-Nonanedithiol]: MP -17.5 °C (via PubChem)
- CN(c1ccc2c(O)c(/N=N/c3ccccc3S(=O)(=O)[O-])c(S(=O)(=O)[O-])cc2c1)c1nc(Cl)nc(Nc2cccc(S(=O)(=O)[O-])c2)n1.[Na+].[Na+].[Na+]: MP 240 °C (via eChemPortal)
- CCCCC/C=C\CCC(=O)O [cis-4-Decenoic acid]: MP 4.5 °C (via PubChem)
- Cc1ccnc(NC(=O)C2CCNCC2)c1 [N-(4-Methylpyridin-2-yl)piperidine-4-carboxamide]: MP 135 °C (via OCHEM)
- S=c1[nH]c2cc(Br)cnc2[nH]1 [6-Bromo-1,3-dihydro-2H-imidazo[4,5-b]pyridine-2-thione]: MP 325 °C (via OCHEM)
- N#Cc1ccc(CCC(=O)O)cc1 [3-(4-cyanophenyl)propanoic Acid]: MP 138 °C (via OCHEM)
- O=Cc1ccc(OCC(=O)c2ccccc2)cc1 [4-(2-oxo-2-phenylethoxy)benzaldehyde]: MP 117 °C (via OCHEM)
- N#CCC(=O)c1cc2ccccc2o1 [Benzofuran, 2-cyanoacetyl-]: MP 147 °C (via OCHEM)
- N#CCc1ccc(C(N)=O)cc1 [4-(Cyanomethyl)benzamide]: MP 187 °C (via OCHEM)
- Cc1cc(C(=O)O)cc(S(=O)(=O)Cl)c1C [3-chlorosulfonyl-4,5-dimethyl-benzoic Acid]: MP 172 °C (via OCHEM)
- CC(=O)Nc1ccc(C)c(N)c1 [Acetamide, N-(3-amino-4-methylphenyl)-]: MP 135 °C (via OCHEM)
- CCN(CC)CCC1(c2ccccc2)CCC(=O)NC1=O (stereo not given) [Phenglutarimide]: MP 126 °C (via OCHEM)
- Nc1cccc(N2CCCC2=O)c1 [1-(3-aminophenyl)pyrrolidin-2-one]: MP 107 °C (via OCHEM)
- CN(C)c1ccc(N2C(=O)CSC2=S)cc1: MP 139 °C (via OCHEM)
- O=C(O)c1cc(-c2cccc3ccccc23)nc2ccccc12 [2-(1-naphthyl)quinoline-4-carboxylic acid]: MP 226 °C (via OCHEM)
- CCCCCCCCC(=O)OC [Methyl n-nonanoate]: MP -34.5 °C (via PubChem, QSARDB)
- CCCCCCCCCCCCCCCCCC[N+](C)(C)[O-] [N,N-Dimethyloctadecylamine N-oxide]: MP 130 °C (via eChemPortal)
- CCCCCCCCCCCCCCOC(=O)CCCCCCCCCCCCC [Myristyl myristate]: MP 42.25 °C (via eChemPortal)
- O=C1C(=O)N(Cc2ccccc2)c2ccccc21 [1-Benzyl-1H-indole-2,3-dione]: MP 93 °C (via OCHEM)
- CN(C)c1ccc(CCC(=O)O)cc1 [3-[4-(DIMETHYLAMINO)PHENYL]PROPANOIC ACID]: MP 106 °C (via OCHEM)
- Cc1occc1-c1n[nH]c(=S)n1C [4-methyl-5-(2-methyl-3-furyl)-4H-1,2,4-triazole-3-thiol]: MP 119 °C (via OCHEM)
- NC(=O)c1cccc(O)c1 [3-hydroxybenzamide]: MP 164 °C (via OCHEM)
- S=c1[nH]ccn1Cc1ccccc1 [1-benzyl-1H-imidazole-2-thiol]: MP 147 °C (via OCHEM)
- Clc1ccc(-c2cc(CBr)on2)cc1 [Isoxazole, 5-bromomethyl-3-(p-chlorophenyl)-]: MP 117 °C (via OCHEM)
- Cc1ccc(C(=O)O)n1C [1,5-dimethyl-1H-pyrrole-2-carboxylic acid]: MP 150 °C (via OCHEM)
- O=C(O)c1cc2ccccc2c(=O)[nH]1 [1-oxo-1,2-dihydroisoquinoline-3-carboxylic acid]: MP 319 °C (via OCHEM)
- Cn1c(Cc2cccs2)n[nH]c1=S [4-methyl-5-(thien-2-ylmethyl)-4H-1,2,4-triazole-3-thiol]: MP 159 °C (via OCHEM)
- Cn1nc2c(c1N)CCC2 [2-Methyl-2,4,5,6-tetrahydrocyclopenta[c]pyrazol-3-amine]: MP 135 °C (via OCHEM)
- O=C(O)COc1cc(Cl)ccc1Cl [2,5-Dichlorophenoxyacetic acid]: MP 147 °C (via OCHEM)
- CCN(CC)S(=O)(=O)c1ccc(O)c(N)c1 [3-amino-N,N-diethyl-4-hydroxybenzenesulfonamide]: MP 75 °C (via OCHEM)
- CC(=O)c1ccc(OCC(=O)Nc2ccccc2)cc1 [Acetamide, 2-(4-acetylphenoxy)-N-phenyl-]: MP 95 °C (via OCHEM)
- O=C(O)c1ccc(F)cc1I [4-Fluoro-2-iodobenzoic acid]: MP 145 °C (via OCHEM)
- O=C1CCCN1c1ccc(O)cc1 [1-(4-hydroxyphenyl)pyrrolidin-2-one]: MP 160 °C (via OCHEM)
- C#CCOc1ccc(Br)cc1C=O [5-Bromo-2-[(prop-2-yn-1-yl)oxy]benzaldehyde]: MP 96 °C (via OCHEM)
- COc1ccc(S(=O)(=O)c2coc(S(N)(=O)=O)c2)cc1 [4-(4-Methoxybenzene-1-sulfonyl)furan-2-sulfonamide]: MP 118 °C (via OCHEM)

9 of these entries, quoted again:

| structure (SMILES) | name | MP (°C) | via |
|---|---|---|---|
| Cc1ccccc1-c1n[nH]c(=S)n1N | n/a | 200 | OCHEM |
| O=C(O)c1cc(F)c(F)cc1C(=O)O | 4,5-difluorophthalic acid | 159 | OCHEM |
| Cc1ccnc(NC(=O)C2CCNCC2)c1 | N-(4-Methylpyridin-2-yl)piperidine-4-carboxamide | 135 | OCHEM |
| COc1ccccc1OCCC(=O)O | 3-(2-methoxyphenoxy)propanoic acid | 134 | OCHEM |
| Clc1ccc(-c2cc(CBr)on2)cc1 | Isoxazole, 5-bromomethyl-3-(p-chlorophenyl)- | 117 | OCHEM |
| Nn1cnc2ccccc21 | 1H-benzimidazol-1-amine | 148 | OCHEM |
| CCCCCCCCCCCCCCCCCC[N+](C)(C)[O-] | N,N-Dimethyloctadecylamine N-oxide | 130 | eChemPortal |
| CN(c1ccc2c(O)c(/N=N/c3ccccc3S(=O)(=O)[O-])c(S(=O)(=O)[O-])cc2c1)c1nc(Cl)nc(Nc2cccc(S(=O)(=O)[O-])c2)n1.[Na+].[Na+].[Na+] | n/a | 240 | eChemPortal |
| CCN(CC)S(=O)(=O)c1ccc(O)c(N)c1 | 3-amino-N,N-diethyl-4-hydroxybenzenesulfonamide | 75 | OCHEM |